The values that follow come from ChEMBL document CHEMBL4177657, “Structure-activity relationships of 2-substituted phenyl-N-phenyl-2-oxoacetohydrazonoyl cyanides as novel antagonists of exchange proteins directly activated by cAMP (EPACs)” (Bioorg Med Chem Lett, 2017).

Sequences of proteins named here, by UniProt entry; tags and fusion partners are left off. A change or cut given only in a name is not applied to a line headed by its entry.
UniProt Q8WZA2: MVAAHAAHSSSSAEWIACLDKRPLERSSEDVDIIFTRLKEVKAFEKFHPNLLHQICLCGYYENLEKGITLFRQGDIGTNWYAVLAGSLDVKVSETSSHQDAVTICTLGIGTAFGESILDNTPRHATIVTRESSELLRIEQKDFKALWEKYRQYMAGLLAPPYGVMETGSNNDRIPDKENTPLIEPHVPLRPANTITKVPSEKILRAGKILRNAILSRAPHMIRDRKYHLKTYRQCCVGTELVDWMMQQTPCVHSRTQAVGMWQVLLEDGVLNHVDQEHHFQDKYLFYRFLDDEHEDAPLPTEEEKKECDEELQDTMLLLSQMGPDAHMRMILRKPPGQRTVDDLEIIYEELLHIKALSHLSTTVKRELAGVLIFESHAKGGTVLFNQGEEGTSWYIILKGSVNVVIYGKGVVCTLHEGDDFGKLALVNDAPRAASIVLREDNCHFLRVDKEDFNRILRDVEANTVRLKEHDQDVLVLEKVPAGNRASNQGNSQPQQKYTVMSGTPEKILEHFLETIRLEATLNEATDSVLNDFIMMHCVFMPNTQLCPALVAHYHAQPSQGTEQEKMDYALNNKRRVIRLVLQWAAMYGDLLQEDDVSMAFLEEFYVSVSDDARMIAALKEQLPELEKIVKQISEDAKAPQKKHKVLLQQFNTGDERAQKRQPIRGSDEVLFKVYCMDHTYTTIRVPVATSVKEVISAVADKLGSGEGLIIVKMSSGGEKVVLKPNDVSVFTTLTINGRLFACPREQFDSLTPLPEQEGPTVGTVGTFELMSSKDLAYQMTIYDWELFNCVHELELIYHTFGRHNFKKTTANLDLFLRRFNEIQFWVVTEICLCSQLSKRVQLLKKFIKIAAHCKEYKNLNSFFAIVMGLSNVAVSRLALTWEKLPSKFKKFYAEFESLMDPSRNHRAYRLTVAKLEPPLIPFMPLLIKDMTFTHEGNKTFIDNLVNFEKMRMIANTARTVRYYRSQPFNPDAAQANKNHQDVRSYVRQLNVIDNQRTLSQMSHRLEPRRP

Test [1] concerns the target Rap guanine nucleotide exchange factor 4 (Homo sapiens, UniProt Q8WZA2). The test can be described thus: Antagonist activity at recombinant full length EPAC2 (unknown origin) assessed as inhibition of cAMP-mediated Rap1b-BODIPY GDP nucleotide exchange activity.
The target of test [2] is T1, Rap guanine nucleotide exchange factor 3 (Homo sapiens) (UniProt O95398).
T1 sequence (whole entry): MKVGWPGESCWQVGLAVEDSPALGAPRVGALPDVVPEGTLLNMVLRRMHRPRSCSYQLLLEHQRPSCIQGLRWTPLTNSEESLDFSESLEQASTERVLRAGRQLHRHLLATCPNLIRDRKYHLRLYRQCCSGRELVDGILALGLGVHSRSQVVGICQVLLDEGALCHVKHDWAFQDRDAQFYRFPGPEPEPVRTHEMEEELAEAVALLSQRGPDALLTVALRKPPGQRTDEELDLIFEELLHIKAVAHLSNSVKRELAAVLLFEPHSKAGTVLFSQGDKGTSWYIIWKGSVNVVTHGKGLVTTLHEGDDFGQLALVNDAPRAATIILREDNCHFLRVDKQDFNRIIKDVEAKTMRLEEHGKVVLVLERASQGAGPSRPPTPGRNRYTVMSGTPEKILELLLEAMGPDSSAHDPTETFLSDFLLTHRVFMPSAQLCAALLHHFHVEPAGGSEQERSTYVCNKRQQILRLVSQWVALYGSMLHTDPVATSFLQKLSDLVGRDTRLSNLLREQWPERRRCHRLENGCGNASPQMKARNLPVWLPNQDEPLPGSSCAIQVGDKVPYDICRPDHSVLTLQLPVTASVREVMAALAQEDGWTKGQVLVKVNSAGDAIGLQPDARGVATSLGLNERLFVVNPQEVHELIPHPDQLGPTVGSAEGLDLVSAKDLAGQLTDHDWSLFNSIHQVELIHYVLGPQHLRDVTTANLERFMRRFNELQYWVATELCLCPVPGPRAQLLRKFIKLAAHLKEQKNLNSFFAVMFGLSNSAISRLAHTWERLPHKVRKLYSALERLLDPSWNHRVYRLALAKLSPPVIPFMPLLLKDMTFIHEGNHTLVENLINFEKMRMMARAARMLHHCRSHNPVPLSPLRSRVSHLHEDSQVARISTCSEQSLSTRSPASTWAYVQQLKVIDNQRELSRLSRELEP
The test can be described thus: Antagonist activity at recombinant full length EPAC1 (unknown origin) assessed as inhibition of cAMP-mediated Rap1b-BODIPY GDP nucleotide exchange activity. An outline of the steps:
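Guanine nucleotide exchange on Rap1b loaded with BODIPY-GDP (Rap1b-bGDP), catalysed by EPAC1 in the presence of 20 μM cAMP. Inhibitor is tested over a dose range. GEF activity is expressed as a normalized reaction rate constant, and IC50 is taken from the dose-response curves. Values are mean ± SE, n = 3.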

Regarding `CC(C)(C)c1ccc(C(=O)/C(C#N)=N/Nc2cc(F)c(F)c(F)c2)cc1`, the IC50 – broadly, the point on the concentration scale where inhibition reaches its midpoint – in test [1] is 15.8 µM.

On to `CC(C)(C)c1ccc(C(=O)/C(C#N)=N/Nc2cccc(Cl)c2)cc1`, for which the inhibition result in test [2] was “Dose-dependent effect”. For the same compound, in test [1], the IC50 amounted to 28.4 µM and the inhibition result is “Dose-dependent effect”.

Regarding `N#C/C(=N\Nc1cc(Cl)cc(Cl)c1)C(=O)c1ccc2ccccc2c1`, the IC50 in test [1] is 2.5 µM.

For `CC(C)(C)c1ccc(C(=O)/C(C#N)=N/Nc2cc(Cl)cc(C(F)(F)F)c2)cc1`, in test [1], the IC50 was 5.4 µM.

Regarding `CC(C)(C)c1ccc(C(=O)/C(C#N)=N/Nc2cc(Cl)cc(Cl)c2)cc1`, the IC50 in test [1] was determined as 2.5 µM.

On to `CC(C)(C)c1ccc(C(=O)/C(C#N)=N/Nc2ccc(Cl)c(C(F)(F)F)c2)cc1`, for which the IC50 in test [1] turned out to be 12.4 µM.

Turning to `CC(C)(C)c1ccc(C(=O)/C(C#N)=N/Nc2cc(F)cc(Cl)c2)cc1`, in test [1], the IC50 was 3.4 µM.

Turning to `N#C/C(=N\Nc1cc(Cl)cc(Cl)c1)C(=O)c1ccc2c(c1)CCCC2`, the inhibition result in test [2] was “Dose-dependent effect”. In test [1], the IC50 was 1.2 µM and the inhibition result is “Dose-dependent effect”.

With `CC(C)(C)c1ccc(C(=O)/C(C#N)=N/Nc2cc(C(F)(F)F)cc(C(F)(F)F)c2)cc1`, in test [2], the inhibition entry is “Dose-dependent effect”. Further, in test [1], the IC50 amounted to 6.3 µM and the inhibition entry is “Dose-dependent effect”.
